Test system: HL-60
Experiment: Differentiation inducing effect on HL-60 cells
Format: functional, Homo sapiens
Outline: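 Line 1 is binding to bovine thymus vitamin D receptor. Lines 3 and 6 are differentiation induction in HL-60 cells.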

In the case of `C=C1/C(=C\C=C2/CCC[C@]3(C)[C@@H]([C@H](C)CCCC(C)(C)O)CC[C@@H]23)C[C@H](O)[C@H](C)[C@@H]1O` (stereo in doubt; form 1), the Relative potency is reported as 13.

— ChEMBL document CHEMBL1133115, “Synthesis, biological evaluation, and conformational analysis of A-ring diastereomers of 2-methyl-1,25-dihydroxyvitamin D(3) and their 20-epimers: unique activity profiles depending on the stereochemistry of the A-ring and at C-20” (2000)
